# Source: publication PMC7262777 (Journal of medicinal chemistry, 2020)
# Test: Mouse pharmacokinetics, plasma and brain
# Conditions: mice, 20 mg/kg IP
structure (smiles),measurement,value
"COc1ccc(OCCN2CCN(C(=O)c3cc4ccccc4[nH]3)CC2)cc1 [Compound 20, (1H-Indol-2-yl)(4-(2-(4-methoxyphenoxy)ethyl)piperazin-1-yl)methanone]",brain penetration,brain penetrant
